Antibody variant affinities, Ab-14 heavy chain, assay B

The target is the same throughout: PDVDLGDISGINAS, from the HR2 region of SARS-CoV-2 spike.

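The parent was found by panning a naive human phage display library on the peptide. Designed CDR sequences, proposed from the first random library and measured here. Several design methods are mixed in this list. The scFvs were displayed on barcoded MATa yeast, the peptide on MATalpha yeast. The frequency of each diploid, read from paired DNA barcodes, reflects how well the two displayed proteins bind. Scores were corrected for input abundance and mapped to Kd with protein pairs of known affinity run in the same pool. Each pool was mated in six replicate cultures.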

Each scFv is VH, three GGGGS repeats, VL, as in the parent Ab-14, and differs from it in the CDRs of the heavy chain only.
VH: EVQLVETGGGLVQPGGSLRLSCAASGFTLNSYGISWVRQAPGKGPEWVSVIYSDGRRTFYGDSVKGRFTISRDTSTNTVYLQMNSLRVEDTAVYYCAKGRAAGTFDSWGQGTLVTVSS
VL: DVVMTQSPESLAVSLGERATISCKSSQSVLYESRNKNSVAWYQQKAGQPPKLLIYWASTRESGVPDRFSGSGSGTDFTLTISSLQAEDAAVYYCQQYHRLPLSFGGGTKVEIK

Sequences are complete VH domains. The Kd shown is the geometric mean over detected replicates; a lower Kd is a better binder. "no signal" marks a missing value. The strain was present, yet no cells mated with the target were sequenced in any replicate, which points to weak or no binding.

VH,apparent Kd,replicates with signal
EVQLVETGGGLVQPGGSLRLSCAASGFTLNQYGISWVRQAPGKGPEWVSVIYSDGWRTFYSDSVKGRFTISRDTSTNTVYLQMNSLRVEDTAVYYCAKGQAAGTFTSWGQGTLVTVSS,220 nM,2/6
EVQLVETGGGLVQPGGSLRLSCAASGFSLDEFGISWVRQAPGKGPEWVSVIYADGMRSFYTDNVKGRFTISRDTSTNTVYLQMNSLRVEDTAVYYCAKGINGNVLWIWGQGTLVTVSS,no signal,0/6
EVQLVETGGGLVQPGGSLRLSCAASGFSLNSYGISWVRQAPGKGPEWVSVIYSDGRRTFYGDSVKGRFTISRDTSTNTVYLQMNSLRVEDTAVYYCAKGRVAGTFDNWGQGTLVTVSS,5.3 nM,6/6
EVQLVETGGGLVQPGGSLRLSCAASGFNLNSYGISWVRQAPGKGPEWVSVIYSDGRRTFYADRVKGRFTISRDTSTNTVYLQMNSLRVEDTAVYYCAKGRTAGTFDSWGQGTLVTVSS,69 nM,4/6
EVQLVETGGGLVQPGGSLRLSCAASGFTLESYGISWVRQAPGKGPEWVSVIYSDGRRTFYADSVKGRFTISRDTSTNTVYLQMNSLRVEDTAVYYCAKGRAAGTFDSWGQGTLVTVSS,15 nM,6/6
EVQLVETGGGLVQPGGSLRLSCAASGFDLNEYGISWVRQAPGKGPEWVSVIYADGMRTQYIDSVKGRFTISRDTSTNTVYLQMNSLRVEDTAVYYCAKGNHAGTFDVWGQGTLVTVSS,1.5 nM,6/6
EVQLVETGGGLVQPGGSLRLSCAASGFDLNEYGISWVRQAPGKGPEWVSVIYADGKRTAYADKVKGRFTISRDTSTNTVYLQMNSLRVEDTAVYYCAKGNVAGTFDVWGQGTLVTVSS,190 pM,6/6
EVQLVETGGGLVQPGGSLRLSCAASGFDLNEYGISWVRQAPGKGPEWVSVIYADGMRTFYADDVKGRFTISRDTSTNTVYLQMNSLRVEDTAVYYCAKGENAGTFDQWGQGTLVTVSS,200 pM,6/6
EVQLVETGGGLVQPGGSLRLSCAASGFTLNSYGISWVRQAPGKGPEWVSVIYSDGRRTFYADSVKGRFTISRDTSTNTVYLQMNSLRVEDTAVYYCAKGRQAGTFDTWGQGTLVTVSS,2.0 nM,6/6
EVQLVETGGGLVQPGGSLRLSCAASGFTLNEYGISWVRQAPGKGPEWVSVIYSDGRRTFYSDSVKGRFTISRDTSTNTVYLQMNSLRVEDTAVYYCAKGRAAGTFNSWGQGTLVTVSS,10 nM,6/6
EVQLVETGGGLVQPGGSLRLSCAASGFTLGSYSISWVRQAPGKGPEWVSVIYSDGRRTFYNDSVKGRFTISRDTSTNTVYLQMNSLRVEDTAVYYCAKGRAAGTFDSWGQGTLVTVSS,100 nM,1/6
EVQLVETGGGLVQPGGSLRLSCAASGFTLNSYGISWVRQAPGKGPEWVSVIYSDGRRTFYGDSVKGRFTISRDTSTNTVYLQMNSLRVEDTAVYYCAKGRIAGTFSSWGQGTLVTVSS,76 nM,2/6
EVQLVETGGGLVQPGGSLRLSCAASGFNLDEYGISWVRQAPGKGPEWVSVIYADGRRTAYADSVKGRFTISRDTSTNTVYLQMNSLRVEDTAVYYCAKGEVAGTFDVWGQGTLVTVSS,290 pM,6/6
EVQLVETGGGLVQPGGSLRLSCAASGFPLNSYGISWVRQAPGKGPEWVSVIYSDGRRTFYGDSVKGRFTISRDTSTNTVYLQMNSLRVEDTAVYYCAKGRAAGTFLSWGQGTLVTVSS,2.0 nM,6/6
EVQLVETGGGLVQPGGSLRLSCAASGFDLDEYGISWVRQAPGKGPEWVSVIYADGMRTAYTDSVKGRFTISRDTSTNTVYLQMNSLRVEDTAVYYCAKGGNAGTFDVWGQGTLVTVSS,260 pM,6/6
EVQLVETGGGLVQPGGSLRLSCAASGFWLNEYGISWVRQAPGKGPEWVSVIYSDGRRTFYMDSVKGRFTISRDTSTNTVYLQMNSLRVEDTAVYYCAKGRTAGTFDSWGQGTLVTVSS,150 nM,6/6
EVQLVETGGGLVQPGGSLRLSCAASGNDLNEYGISWVRQAPGKGPEWVSVIYADGSRTSYQEKVKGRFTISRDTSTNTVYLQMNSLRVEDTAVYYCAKGLVGGMLIVWGQGTLVTVSS,no signal,0/6
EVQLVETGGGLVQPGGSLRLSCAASGFSLNDYGISWVRQAPGKGPEWVSVIYSDGRRTFYIDSVKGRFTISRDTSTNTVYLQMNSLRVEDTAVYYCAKGRVAGTFDSWGQGTLVTVSS,1.3 nM,6/6
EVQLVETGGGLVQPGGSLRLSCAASGFDLNEYGISWVRQAPGKGPEWVSVIYADGVRTAYTDSVKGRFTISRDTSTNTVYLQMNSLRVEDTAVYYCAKGTNAGTFDVWGQGTLVTVSS,460 pM,6/6
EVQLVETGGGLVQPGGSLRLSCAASGFDIGEYGISWVRQAPGKGPEWVSVIYADGRRKAYSDAVKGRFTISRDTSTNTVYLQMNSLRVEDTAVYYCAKGIDVYGKTVWGQGTLVTVSS,no signal,0/6
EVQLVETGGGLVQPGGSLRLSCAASGFDLNEYGISWVRQAPGKGPEWVSVIYADGQRKAYADSVKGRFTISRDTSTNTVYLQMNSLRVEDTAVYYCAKGQNAGTFDVWGQGTLVTVSS,180 pM,6/6

Repeated from above, the 2 best binders with a signal in all replicates:

VH,apparent Kd,replicates with signal
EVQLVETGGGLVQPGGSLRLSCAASGFDLNEYGISWVRQAPGKGPEWVSVIYADGQRKAYADSVKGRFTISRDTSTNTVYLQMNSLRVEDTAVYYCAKGQNAGTFDVWGQGTLVTVSS,180 pM,6/6
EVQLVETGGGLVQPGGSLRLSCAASGFDLNEYGISWVRQAPGKGPEWVSVIYADGKRTAYADKVKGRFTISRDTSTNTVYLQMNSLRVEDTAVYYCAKGNVAGTFDVWGQGTLVTVSS,190 pM,6/6

In the paper, a design with two or fewer of six values counts as a poor binder. Nonspecific signal, from three strains lacking the peptide, appeared in 1% of pairings of all heavy chain designs, centred on 120 nM (5% of these signals below 7.0 nM); values are not corrected for it. The range of this assay differs from that of the first round, and the authors advise against merging the two. The parent sequence was in this pool as ten entries: three were never detected, three once, and four in most replicates, with averages from 2.2 nM to 240 nM.

Data: MIT Lincoln Laboratory AlphaSeq set, Li et al. 2023, doi:10.1038/s41467-023-39022-2, as distributed in FLAb.